# scFv variants of Ab-14 (light chain) against a SARS-CoV-2 spike peptide

All variants were tested on one target, the spike HR2 peptide PDVDLGDISGINAS (SARS-CoV-2).

The variants keep the heavy chain, the linker and the frameworks of Ab-14 (scFv order VH, three GGGGS repeats, VL).
VH: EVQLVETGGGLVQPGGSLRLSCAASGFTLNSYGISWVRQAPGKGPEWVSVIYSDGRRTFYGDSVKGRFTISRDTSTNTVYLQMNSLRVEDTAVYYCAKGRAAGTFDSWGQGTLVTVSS
VL: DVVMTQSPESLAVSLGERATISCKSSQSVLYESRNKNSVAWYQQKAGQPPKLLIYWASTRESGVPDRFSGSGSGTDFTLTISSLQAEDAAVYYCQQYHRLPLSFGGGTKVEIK

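The variants were designed computationally from a first round of random CDR variants and then made and measured. Several design methods are mixed in this list. Affinity was read by AlphaSeq, a pooled yeast mating assay with surface-displayed partners. After mating in shaken culture at 30 °C for 16 h, diploids were selected and their barcode pairs sequenced. Scores were corrected for input abundance and mapped to Kd with protein pairs of known affinity run in the same pool. Each pool was mated in six replicate cultures.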

Variants are written as CDR1, CDR2 and CDR3 of the light chain (limits as in the source). Parent: KSSQSVLYESRNKNSVA, WASTRES, QQYHRLPLS. The read-out is the apparent dissociation constant on a log10 scale (nM): the lower, the stronger. The mean shown is taken over the replicates in which the pair was detected. Where no diploid with the target was found in any replicate, the entry reads "nd": below detection, most likely a poor binder, though not proof of it. As a blank, each scFv also met three strains without target: over all light chain designs, 4% of these pairings were detected, typically at 2.64 and seldom below 1.59. The control count says in how many pairings with the empty strains this scFv gave a signal. The range of this assay differs from that of the first round, and the authors advise against merging the two. In the paper, a design with two or fewer of six values counts as a poor binder. Of ten entries with the parent sequence, four were seen in most replicates (averages 0.34 to 2.37), three in one and three in none, so single entries are noisy.

"log10 Kd (nM), mean",detected,signal with controls,CDR-L1,CDR-L2,CDR-L3
0.50,6 of 6,2 of 18,KVQEEALGGNQYTSNIA,GQSVAMP,QQYERLPLD
1.08,6 of 6,1 of 18,HMSMLTMSGMKQRNSVA,QMTMREN,QQYDRLPLA
nd,0 of 6,0 of 18,KLSQFYRMETRDKNSVA,DNSTRES,QDYDRLPLS
-0.44,6 of 6,0 of 18,KVSQSWLYESRNKNSVA,GASAREV,QQYHRLPLS
1.19,6 of 6,0 of 18,KSSQSVLNESSNKNSVA,WASTRES,QQYHRLPLS
0.33,6 of 6,1 of 18,KVLQSVLYGSRDKNSVA,HASTRED,QQYHRLPLS
0.20,6 of 6,0 of 18,KVSQSWLYEDRNWNSVA,QASCRNS,QQYHRLPLS
0.68,6 of 6,0 of 18,KSSQSPLYESRNKNSVA,SASTREL,QQHHRLPLS
0.15,6 of 6,1 of 18,HISMMVGTKGYVKNSVA,NAETRED,QQYHRLPLS
2.63,6 of 6,2 of 18,KSSPSCLYESRNKNSVA,WASTRES,QQYHRLPLS
0.40,6 of 6,1 of 18,KMSQEVPLESRNVNSVA,MASTREM,QQYHRLPLS
-0.51,6 of 6,1 of 18,KLMQSWLYESRNKNNVA,NASQRES,QQYHRLPLS
-0.47,6 of 6,0 of 18,KVSMLGLYGQRNKNSVA,EASTRED,QQYHRLPLS
1.64,6 of 6,2 of 18,KLDQKNRVNGMACYNVA,DSNHRLD,QQYHRLPLI
0.21,6 of 6,0 of 18,KLYQSTAMTSRMKNNVA,DLNERER,QQYFRLPLS
0.42,6 of 6,0 of 18,KMSPSYLYEDRAFNSVA,NASTRES,QQYHRLPLS
1.31,6 of 6,1 of 18,KSSQSVLEESRNKNSVA,WASTRES,QQYYRLPLS
-0.10,6 of 6,1 of 18,KLDMYELGYSQLSSSVA,GSANKCQ,QQYFRLPLS
0.00,6 of 6,1 of 18,ALSQVMDMTSRNKNSVA,DLSTREN,QQYHRLPLS
0.63,6 of 6,0 of 18,ALELFEYQIMKDLNSIA,NTNTKVN,QQYMRLPFA
1.91,6 of 6,0 of 18,KSSQSVLYESRNKNSVA,WASTRES,QQYHRLPFS
1.83,6 of 6,0 of 18,KVSQSVLYQSRNKNSVA,WASTREM,QQYHRLPLS
2.23,6 of 6,0 of 18,KSSQSVLYESRNSNSVA,WASTRES,QQYHRLPLS
0.18,6 of 6,0 of 18,KSSKSGLYESRNKNSVA,EASTRES,QQYHRLPLS
0.59,6 of 6,3 of 18,KLRQSTLYESRNKNSVA,FASTRES,QQYHRLPLS
0.64,6 of 6,0 of 18,KLMCSMEYESRNKNSVA,NASTREM,QQYHRLPLS
0.21,3 of 6,0 of 18,MLLQATMYGERNRNSVA,HASTRND,QQYHRLPLI
0.09,6 of 6,1 of 18,KIGATLNTLMHQKNNVA,DLVMREQ,QQYHRLPLS
2.07,3 of 6,0 of 18,KLSMTQELEHVNRNSVA,ELVTRIS,QQYNRLPLS
1.71,6 of 6,0 of 18,TISNSFMMENQFKNSVA,QASTREN,QCYDRLPLS
0.36,6 of 6,1 of 18,KVSPSHLYWSRNKNSVA,NASTRET,QQYHRLPLS
0.28,6 of 6,2 of 18,KQQQSEPGESRNMNSVA,HASQRES,QQYHRLPLS
0.42,6 of 6,0 of 18,HISSMDMLDGGIIHNIA,DTGITER,QQYMRLPLI
0.91,6 of 6,1 of 18,KFLEGMRGNQQNEQAVA,DAQHRVY,QQYCHLPLS
0.62,6 of 6,2 of 18,KLMGSMLYEQRMTNSVA,NASVRMS,QQYHRLPLS
0.29,6 of 6,2 of 18,QISMLLNFESYKGSNVA,QMETRVN,QQYHHLPLS
-0.16,6 of 6,1 of 18,KQSQSVLMGERNKNSVA,NASYRLS,QQYHRLPLS
0.62,6 of 6,1 of 18,KCSQSVLYESRNKNSVA,DASTRES,QQYHRLPLD
1.36,6 of 6,1 of 18,VVMQNFIDGMERQYSIA,ETSRVME,QQYFHLPLI
-0.29,6 of 6,0 of 18,KMEQGVDYESRNKNSVA,GASVRES,QQYHRLPLS
-0.02,6 of 6,1 of 18,KMEWSDLLESRNKQSVA,QASTRES,QQYHRLPLS
-0.22,6 of 6,1 of 18,KMEQGWLYESRNKNSVA,GASVRES,QQYHRLPLS
-0.51,6 of 6,1 of 18,KVLQSVVYEDRNKNSVA,HASTRED,QQYHRLPLS
-0.12,6 of 6,2 of 18,KQQQSVLYESRNKNSVA,DASTRSS,QQYHRLPLS
1.81,5 of 6,0 of 18,KSSQSVLYESRNKNSVA,SASTRES,QQYHYLPLS
2.16,5 of 6,0 of 18,MISSLYNMGQFAINSVA,QASERNE,QQYDRLPLI
-0.16,6 of 6,2 of 18,KISQSVLYESRNKNSVA,HASTRES,QQYHRLPLS
0.13,6 of 6,0 of 18,KLQQGMDYESRNDNSVA,EASTRES,QQYHRLPLF
1.67,6 of 6,1 of 18,MVLKEDFQEYAAKNAVA,NASEKET,QHYARLPLV
1.92,5 of 6,0 of 18,KLMQNKVHGATRQYNIA,ETTLVGQ,QQYFHLPFI
0.85,6 of 6,0 of 18,TISQMFLGESRNRNSVA,QTSTRES,QSYDRLPLS
1.70,6 of 6,0 of 18,KLRLHNLDFYEVENSIA,GESNRAH,QQYYRLPLN
0.48,6 of 6,0 of 18,KSSGSVLGEDWNSNSVA,NASQRES,QQYHRLPLS
0.19,6 of 6,1 of 18,SLEPFEYQIMKDLNNIA,NTQVRAN,QQYMRLPFM
nd,0 of 6,0 of 18,KTSQSVLGEQRNKNSVA,DISTRES,QQYHRLPLS
1.63,6 of 6,1 of 18,NLSMELEDMGVKDHSIA,EEELPEY,QQYMRLPLM

Extract of 9 entries:

{"CDR-L1": "KSSQSVLYESRNSNSVA", "CDR-L2": "WASTRES", "CDR-L3": "QQYHRLPLS", "log10 Kd (nM), mean": "2.23", "detected": "6 of 6", "signal with controls": "0 of 18"}
{"CDR-L1": "KSSGSVLGEDWNSNSVA", "CDR-L2": "NASQRES", "CDR-L3": "QQYHRLPLS", "log10 Kd (nM), mean": "0.48", "detected": "6 of 6", "signal with controls": "0 of 18"}
{"CDR-L1": "KVLQSVLYGSRDKNSVA", "CDR-L2": "HASTRED", "CDR-L3": "QQYHRLPLS", "log10 Kd (nM), mean": "0.33", "detected": "6 of 6", "signal with controls": "1 of 18"}
{"CDR-L1": "KVSQSWLYEDRNWNSVA", "CDR-L2": "QASCRNS", "CDR-L3": "QQYHRLPLS", "log10 Kd (nM), mean": "0.20", "detected": "6 of 6", "signal with controls": "0 of 18"}
{"CDR-L1": "MVLKEDFQEYAAKNAVA", "CDR-L2": "NASEKET", "CDR-L3": "QHYARLPLV", "log10 Kd (nM), mean": "1.67", "detected": "6 of 6", "signal with controls": "1 of 18"}
{"CDR-L1": "KMSPSYLYEDRAFNSVA", "CDR-L2": "NASTRES", "CDR-L3": "QQYHRLPLS", "log10 Kd (nM), mean": "0.42", "detected": "6 of 6", "signal with controls": "0 of 18"}
{"CDR-L1": "KQQQSEPGESRNMNSVA", "CDR-L2": "HASQRES", "CDR-L3": "QQYHRLPLS", "log10 Kd (nM), mean": "0.28", "detected": "6 of 6", "signal with controls": "2 of 18"}
{"CDR-L1": "KQSQSVLMGERNKNSVA", "CDR-L2": "NASYRLS", "CDR-L3": "QQYHRLPLS", "log10 Kd (nM), mean": "-0.16", "detected": "6 of 6", "signal with controls": "1 of 18"}
{"CDR-L1": "KLSQFYRMETRDKNSVA", "CDR-L2": "DNSTRES", "CDR-L3": "QDYDRLPLS", "log10 Kd (nM), mean": "nd", "detected": "0 of 6", "signal with controls": "0 of 18"}

Reference: Li et al. 2023, doi:10.1038/s41467-023-39022-2. File: FLAb, binding data.